Experiments:
[1] = system: normal tissues (skin, brain, small intestine, liver, heart, lung, kidney); assay: Immune histochemistry of normal human tissues; type: binding; details: FIG. 13
Method: Next, the cancer-detection frequency by the antibodies was examined using various human tissue specimens which were obtained from those who had been diagnosed to have cancer. The paraffin sections were prepared from the tissue specimens in the same way as shown in Example 6 according to a routine procedure. The prepared sections were subjected to reactions with 1 μg/mL of one of the above antibodies. An HRP-labelled anti rat antibody was used as a secondary antibody, which emitted light with DAB. The observation was performed after hematoxylin staining. 1361 antibody-staining was negative in immune histochemistry of normal tissues from skin, brain, small intestine, liver, heart, lung and kidney.

[2] = system: wild type DLD-1 cells; assay: ADCC activity (51Cr release, TK176V effector cells), wild type DLD-1; type: cell-based, human; details: ET ratio 40; 4 hours; 0.064 to 1,000 ng/mL; FIGS. 20A to 20D
Method: Specifically, TK176V (a natural killer cell line stably expressing FcγRIII) was used as an effector cell, which was obtained from Chemicals Evaluation and Research Institute, Japan. The wild type DLD-1 cell line was used as a target cell.
T1 76V was cultured in RPM11640 containing 10 ng/mL IL-2 and 10% FBS. For passages, the medium was diluted with a fresh medium every 2 to 3 days. In the passage, the cells were detached by a trypsin treatment and then suspended in a fresh medium to be plated on a dish every 2 to 3 days.
The measurement of the ADCC activity was performed as described below.
First, the amount of 51Cr release was measured when only the target cells were cultured in medium as a negative control, which is referred to as “Spontaneous release measurement”. The amount of 51 Cr release was measured when the all target cells were damaged by adding 0.1% TRITON™ (surfactant) X-100, which is referred to as “Max release measurement.”
1) Adding DLD-1 WT labelled with 50 μCi of ^51Cr to a U-bottom, 96 well plate at 5,000 cells/50 μL/well.
2) Adding TK176V at 200,000 cells/50 μL/well (ET ratio: 40): A medium was added at 50 μL/well to the well for Spontaneous release measurement and the well for Max release measurement. […]

[3] = system: Wildtype DLD-1 cells; assay: Internalization of the antibody; type: cell-based, human; details: 488-labelled antibody; 37° C.; 1, 3 or 6 hours; FIG. 25
Method: Wildtype DLD-1 cells were plated on a 96-well plate at 5,000 cells/well. The plate was incubated at 37° C. for 18 hours. After washing, a 488-labelled 669 antibody was added to the wells at 2 μL/well and was incubated at 37° C. for certain hours (1 hour, 3 hours, or 6 hours). After the wells were washed three times, a rabbit anti 488 antibody was added at 2 μL/well to stand still at 4° C. for 30 minutes to quench the fluorescence derived from the antibodies binding to the cell surface. After the wells were washed three times, 4% PFA was added at 100 μL/well to stand still at room temperature for 10 minutes. After the wells were washed three times, DAPI (1/500 dilution) was added to the wells at 100 μL/well to stand still at room temperature for 5 minutes. After the wells were washed three times, the wells were subjected to photographing or Array Scan analysis. An anti-EGFR antibody, Cetuximab (Erbitux) was used as a control.

[4] = system: colon cancer tissue arrays; assay: Staining of colon cancer tissue array (immunohistochemistry); type: binding; details: tissues D8, B7 and B5; FIG. 17
From the text: The colon cancer tissue arrays were purchased from BioChain Institute Inc. (Newark, Calif.) and used in the experiment. Each tissue array was stained according to the manufacturer's manual.

“cetuximab: anti-EGFR antibody, Cetuximab (Erbitux) [reference compound]” was tested, and the “reactivity to normal skin tissues” value [1] was “strong positive reaction”, the “reactivity to normal skin tissues” value ([1]; listed as Cetuximab) was “strong reactivity” and the “ADCC activity against wild type DLD-1 cells” value [2] was “strong ADCC activity”. The internalization into cells [3] was “limited” and the “staining of colon cancer tissue array” value [4] was “negative”.

— US11633499B2, “Anti-TMEM-180 antibody, anticancer drug and cancer testing method” (NATIONAL CANCER CENTER JAPAN, priority 2016, dated 2023)
